Data: BindingDB's records for doi:10.1016/j.bmcl.2004.02.022 (Pfizer, 2004)

Experiment: Inhibition of CCL3 induced chemotaxis in human T lymphocytes

An IC50 of 0.065 µM was found for `CC(C)(O)CCC(C[C@H](O)[C@H](Cc1cccc(F)c1)NC(=O)c1cnc2ccccc2n1)C(N)=O` (stereo partly drawn) [Quinoxaline-2-carboxylic acid [(1S,2S)-4-carbamoyl-1-(3-fluoro-benzyl)-2,7-dihydroxy-7-methyl-octyl]-amide] in this work.
